Experimental data as given in patent publication US8791267B2, “Biaryl PDE4 inhibitors for treating inflammatory, cardiovascular and CNS disorders” (Decode Genetics EHF, priority 2007, dated 2014).

Protein sequences, listed by entry. Tags and fused reporters are not part of them.
UniProt Q07343, whole entry: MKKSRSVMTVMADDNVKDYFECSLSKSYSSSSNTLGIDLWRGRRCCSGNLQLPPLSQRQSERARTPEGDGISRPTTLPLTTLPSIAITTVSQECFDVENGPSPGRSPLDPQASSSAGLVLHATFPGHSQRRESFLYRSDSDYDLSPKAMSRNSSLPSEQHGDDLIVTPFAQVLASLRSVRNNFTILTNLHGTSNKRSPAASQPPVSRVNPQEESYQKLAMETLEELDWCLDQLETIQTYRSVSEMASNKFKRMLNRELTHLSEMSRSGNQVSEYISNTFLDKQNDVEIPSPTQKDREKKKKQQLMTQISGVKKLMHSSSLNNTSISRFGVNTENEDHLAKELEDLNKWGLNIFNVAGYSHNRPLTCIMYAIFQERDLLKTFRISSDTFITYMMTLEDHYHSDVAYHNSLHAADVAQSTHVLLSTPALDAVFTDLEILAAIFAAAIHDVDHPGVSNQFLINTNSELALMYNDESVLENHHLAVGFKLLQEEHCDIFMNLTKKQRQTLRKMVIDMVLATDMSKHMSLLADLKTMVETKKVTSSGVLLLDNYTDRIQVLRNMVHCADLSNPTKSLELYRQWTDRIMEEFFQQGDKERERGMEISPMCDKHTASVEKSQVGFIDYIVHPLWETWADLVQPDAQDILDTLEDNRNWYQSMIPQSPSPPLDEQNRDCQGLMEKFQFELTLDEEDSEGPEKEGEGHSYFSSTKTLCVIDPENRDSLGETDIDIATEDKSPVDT
UniProt Q08499, whole entry: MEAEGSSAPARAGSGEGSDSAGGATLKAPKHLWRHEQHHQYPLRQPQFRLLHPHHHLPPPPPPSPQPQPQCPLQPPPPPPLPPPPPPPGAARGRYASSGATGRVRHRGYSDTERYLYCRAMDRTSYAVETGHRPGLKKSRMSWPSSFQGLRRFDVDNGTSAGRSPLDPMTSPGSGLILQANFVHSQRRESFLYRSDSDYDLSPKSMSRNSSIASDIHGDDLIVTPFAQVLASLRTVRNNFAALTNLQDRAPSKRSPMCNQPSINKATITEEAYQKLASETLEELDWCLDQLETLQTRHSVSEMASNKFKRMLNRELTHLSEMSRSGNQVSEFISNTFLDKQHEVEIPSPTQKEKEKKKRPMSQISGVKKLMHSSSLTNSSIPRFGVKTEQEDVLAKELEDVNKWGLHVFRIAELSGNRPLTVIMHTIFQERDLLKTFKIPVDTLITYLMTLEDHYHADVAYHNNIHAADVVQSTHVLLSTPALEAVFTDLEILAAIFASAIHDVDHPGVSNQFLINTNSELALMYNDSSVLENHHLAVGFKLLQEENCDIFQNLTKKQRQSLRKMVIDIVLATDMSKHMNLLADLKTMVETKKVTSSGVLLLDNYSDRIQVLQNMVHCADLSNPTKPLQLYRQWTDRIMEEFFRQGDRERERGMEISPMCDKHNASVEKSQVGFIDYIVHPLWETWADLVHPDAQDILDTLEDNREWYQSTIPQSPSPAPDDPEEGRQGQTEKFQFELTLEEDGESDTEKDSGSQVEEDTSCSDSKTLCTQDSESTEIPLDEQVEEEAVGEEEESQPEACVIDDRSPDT

Key:
PDE4B = PDE4B (Homo sapiens, UniProt Q07343); test: In-vitro assay for PDE4 enzymes, real-time enzyme-coupled spectrophotometric assay, PDE4B Activity (Table 10); assay type: biochemical; settings: read-out: PDE4B Activity, hPDE4B
PDE4 = PDE4 (Homo sapiens, UniProt Q08499); test: In-vitro assay for PDE4 enzymes, real-time enzyme-coupled spectrophotometric assay (Table 9); assay type: biochemical; settings: read-out: hPDE4D, human PDE4D, activity class

| SMILES | IC50 (PDE4B) | IC50 (PDE4) |
| --- | --- | --- |
| COC(=O)c1cc(-c2cc(Cn3cncn3)ccc2OC)ccc1F | 5 to 20 µM | < 5 µM |
| COc1ccc(Cn2cncn2)cc1-c1cccc(C(F)(F)F)c1 | 5 to 20 µM | < 5 µM |
| COc1ccc(Cc2ccc(-c3ccc(O)nc3)nc2)c(F)c1-c1cccc(Cl)c1 | – | < 5 µM |
| COc1ccc(Cc2ccc(NC(N)=O)nc2)c(F)c1-c1cccc(C(C)=O)c1 | < 5 µM | < 5 µM |
| COc1ccc(Cc2ccc(NCC(=O)O)nc2)c(O)c1-c1cccc([N+](=O)[O-])c1 | < 5 µM | < 5 µM |
| COc1ccc(CNc2ccc(NC(C)=O)cc2)c(F)c1-c1cccc(Cl)c1 | – | 5 to 20 µM |
| COc1ccc(Cn2cncn2)cc1-c1cc(F)c(F)c(F)c1 | 5 to 20 µM | < 5 µM |
| COc1ccc(Cn2cc(Br)cnc2=O)cc1-c1cccc(Cl)c1 | 5 to 20 µM | 5 to 20 µM |
| COC(=O)c1cccc(-c2cc(Cn3cncn3)ccc2OC)c1F | – | < 5 µM |
| COc1ccc(Cn2cc(-c3ccc(N)cc3)cn2)c(F)c1-c1cccc(Cl)c1 | – | < 5 µM |
| COc1ccc(Cn2cncn2)cc1-c1ccc(F)c(F)c1 | 5 to 20 µM | < 5 µM |
| COc1ccc(Cn2c(=O)oc3ccccc32)cc1-c1cccc([N+](=O)[O-])c1 | < 5 µM | < 5 µM |

The next lines start with the values.

| IC50 (PDE4B) | IC50 (PDE4) | SMILES |
| --- | --- | --- |
| < 5 µM | < 5 µM | COc1ccc(Cn2ncccc2=O)cc1-c1cccc([N+](=O)[O-])c1 |
| 21 to 40 µM | 5 to 20 µM | COc1ccc(=O)n(Cc2ccc(OC)c(-c3cccc([N+](=O)[O-])c3)c2)n1 |
| 5 to 20 µM | 5 to 20 µM | COc1ccc(Cn2nc(C)ccc2=O)cc1-c1cccc([N+](=O)[O-])c1 |
| – | 20 to 40 µM | COc1ccc(C(=O)c2ccc(F)cc2)c(OC)c1-c1cccc([N+](=O)[O-])c1 |
| 5 to 20 µM | < 5 µM | COc1ccc(C(O)c2ccc(F)cc2)c(F)c1-c1cccc([N+](=O)[O-])c1 (stereo not shown) |
| – | 5 to 20 µM | COc1ccc(CSc2ccc(F)cc2)cc1-c1cccc([N+](=O)[O-])c1 |
| < 5 µM | < 5 µM | COc1ccc(Cn2cccc(OC)c2=O)cc1-c1cccc([N+](=O)[O-])c1 |
| < 5 µM | < 5 µM | COc1ccc(Cc2ccc[nH]c2=O)c(O)c1-c1cccc([N+](=O)[O-])c1 |
